Read-outs that look alike come from different tables or passages of the source.
Tests used:
[1] = system: Hh-responsive GLI-luciferase reporter in human prostate cancer cells; assay: Gli-luciferase reporter assay; assay type: cell-based; conditions: 48 hours incubation, normalized to Renilla luciferase
22RV1-GLI cells = conditions: stable overexpression of GLI
[2] = system: 22RV1 cells overexpressing GLI; conditions: over-expression of GLI
PC3 xenograft tumors = conditions: for tumor growth: by the ninth day of treatment
22RV1 xenograft tumors = conditions: by the ninth day of treatment
[3] = system: xenograft tumors from 22RV1 cells overexpressing GLI; conditions: 22RV1 overexpressing GLI; 50 mg/kg/day
[4] = system: AT6.3 subcutaneous tumors

## CC1=C2C[C@H]3[C@@H](CC=C4C[C@@H](O)CC[C@@]43C)[C@@H]2CC[C@]12O[C@@H]1C[C@H](C)CN[C@H]1[C@H]2C [cyclopamine]
[1]
  Hh-responsive GLI-luciferase reporter activity: fully suppressible
22RV1-GLI cells
  Hh-responsive GLI-luciferase reporter activity: bypassed by stable overexpression of GLI
[2]
  anti-proliferative effect: bypass of cyclopamine blockade with over-expression of GLI
PC3 xenograft tumors; 10 mg/kg daily s.c.
  tumor growth: suppression of tumor growth
PC3 xenograft tumors; 50 mg/kg daily s.c.
  tumor growth: regression of tumors
PC3 xenograft tumors; after 28 days of 50 mg/kg
  observation period after cessation of treatment without regrowth of tumors: 86 days
22RV1 xenograft tumors; 10 mg/kg daily s.c.
  tumor growth: suppression of tumor growth
22RV1 xenograft tumors; 50 mg/kg daily s.c.
  tumor growth: regression of tumors
[3]
  tumor growth: not affected
[4]; i.p. 10 mg/kg/day
  rate of growth of primary subcutaneous tumors: 9.2 %/day
[4]; i.p. 50 mg/kg/day
  rate of growth of primary subcutaneous tumors: 4.9 %/day
[4]; subcutaneous injection 50 mg/kg/day, data not shown
  tumor growth: blocks tumor growth altogether

— US20070231828A1 (published 2007)
